Reference: PubChem BioAssay AID2306 (GlaxoSmithKline (GSK), 2010)
The entries are a selection whose mix differs from that of the whole data set. Calls of active or inactive are those of the source. No rule for the calls is given here.

Assay: inhibition of 3D7 malaria parasite growth – strain 3D7 (AID 2306);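 also: 0% = DMSO wells and 100% = chloroquine plus artemisinin control wells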
Conditions: P. falciparum 3D7 erythrocytic growth, LDH absorbance, 72 h; at 2 µM; hits give high values
In the case of `CCN1CCCC(OC(=O)C(O)(c2ccc3c(c2)OCO3)c2ccc3c(c2)OCO3)C1` (configuration not stated), the growth inhibition is reported as active: 98%. With `CCN1CCCC1COC(=O)C(O)(c1ccc2c(c1)OCO2)c1ccc2c(c1)OCO2` (configuration not stated) the growth inhibition was active: 97%.
